Literature values as cited in patent US20070237728A1, “Method and Composition for Dental Bleaching” (HIGH TECH LASER, priority 2000, published 2007).

System: teeth
Details: tetracycline staining of teeth

Tetracycline chloride
type of teeth discolouration caused: grey-brown discolouration
